Assay results published in ChEMBL document CHEMBL1240343, “Transition state analogs of 5'-methylthioadenosine nucleosidase disrupt quorum sensing” (Nat Chem Biol, 2009).

Key:
[1] = target: T1, 5'-methylthioadenosine/S-adenosylhomocysteine nucleosidase (Vibrio cholerae serotype O1 (strain ATCC 39315 / El Tor Inaba N16961), UniProt Q9KPI8)
T1 sequence (Q9KPI8 whole entry): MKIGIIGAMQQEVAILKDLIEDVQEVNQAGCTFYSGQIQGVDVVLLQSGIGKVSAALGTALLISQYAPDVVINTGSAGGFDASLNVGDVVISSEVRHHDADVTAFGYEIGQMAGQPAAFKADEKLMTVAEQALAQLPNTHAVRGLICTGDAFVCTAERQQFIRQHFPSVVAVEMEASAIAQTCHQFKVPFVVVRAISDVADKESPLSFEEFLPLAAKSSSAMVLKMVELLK

[2] = target: T1, 5'-methylthioadenosine/S-adenosylhomocysteine nucleosidase; remark: listed apart in the source
[3] = target: T1, 5'-methylthioadenosine/S-adenosylhomocysteine nucleosidase; remark: listed apart in the source
[4] = target: T1, 5'-methylthioadenosine/S-adenosylhomocysteine nucleosidase; assay: cell-based

SMILES: CSC[C@H]1CN(Cc2c[nH]c3c(N)ncnc23)C[C@@H]1O
- Ki [1]: 0.073 nM
- IC50 [2]: 10.5 nM
- IC50 [3]: 10.5 nM
- IC50 [4]: 27 nM
